Like-named read-outs stand apart in the source and are kept apart here.
Molecular target: T1, Aβ40 fibrils (Homo sapiens, UniProt P05067)
T1 construct: mixed with Aβ40 fibrils (5 μM) incubated in Tris pH 8.0 (A) or PB pH 7.4 (B)
Experiment: Dissociation constant (binding affinity) for Aβ40 fibrils
Protocol: Quantitative assessment of OPE sensor performance towards A1340 fibrils at a 5 to 1 protein to sensor molar ratio was analyzed by calculating an amyloid detector factor using the equation shown in FIG. 13, where F(dye-in-buffer), F(dye+fibrils) and F(dye+monomers) are the integrated emission intensities for sensor alone, sensor in the presence of fibrils, and sensor in the presence of monomers, respectively. Using this equation, positive ADF values indicate selective sensing of fibrils over monomers, while negative ADF values indicate selective sensing of monomers. ADF values close to zero indicate no selective sensing.

Sequences of proteins named here, by UniProt entry; tags and fusion partners are left off. Residues count along the entry.
UniProt P05067, 672-711 limits assumed: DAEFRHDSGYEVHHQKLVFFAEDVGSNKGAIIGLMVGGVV

Cc1ccc2c(c1)sc(-c1ccc(N(C)C)cc1)[n+]2C.[Cl-] [ThT, thioflavin T, reference compound]
Kd (Aβ40 fibrils produced in pH 7.4 PB, read-out: KD (Dissociation Constant), Aβ40 in PB): 5.1 µM | Kd (Aβ40 fibrils produced in pH 8.0 Tris, read-out: KD (Dissociation Constant), Aβ40 in Tris): 2.7 µM

Source: US11759520B1, “Theranostics for protein misfolding diseases” (UNM Rainforest Innovations, priority 2018, dated 2023)
